Data set [1] is described as follows: Nitric oxide analysis (NOA) release profile measured by chemiluminescence.
The nature of data set [2]: Degradation and NO/HNO release under simulated physiological conditions. As to conditions: for release of NO or HNO: physiological temperatures and pHs.

In the case of `[O-]/[N+](=N\O)C(/[N+]([O-])=N/O)/[N+]([O-])=N/O`, the NO released in data set [1] (pH 7.4, chemiluminescence) is recorded as 6.7 μmol NO/mg.
In data set [1] (MTDD (NCT-19-096) mixed with β-cyclodextrin), β-cyclodextrin displayed an NO-loading of 0.0 µmol/mg.
As to `[O-]/[N+](C/[N+]([O-])=N\O)=N\O`, the “release of NO or HNO” value is reported as “does not release NO or HNO” in data set [2] and “does not release NO or NHO” in data set [2] (listed as Methane bis-diazeniumdiolate). Moreover, the degradation result in data set [2] (simulated physiological conditions) is recorded as “does not not degrade to any significant degree”.

Values taken from patent publication US20230108186A1, “NITRIC OXIDE-RELEASING ANTIBACTERIAL COMPOUNDS, FORMULATIONS, AND METHODS PERTAINING THERETO” (published 2023).
